Data as given in PMC12477777, “Human exposure to green spaces and monoterpenes: discovery and use of α-pinene metabolites as biomarkers” (Environment international, 2025).

Columns and labels:
[1] = Kinetic modeling of urinary aPM with a pseudo one-compartment nonlinear mixed-effects model after α-pinene inhalation; format: in vivo; settings: human urine after α-pinene inhalation
Text: In this equation, i represents the participant index, j the urine sample index, C the creatinine-normalized peak response, and t the sample collection time ( h).Ka denotes the first-order generation constant ( h^−1 ), and Ke denotes the first-order elimination rate constant h^−1 . F indicates the fraction of specific aPM relative to absorbed α-pinene. The variables D and V refer to the absorbed α-pinene amount and the distribution volume, respectively. Because input data were derived from relative quantification, absolute values of D , V , and F were not available. For simplicity, D and V were fixed at 100 and 1, respectively, and F was normalized relative to the sum of all detected aPM. The error term ε accounts for residual variation.

[2] = Urinary aPM after 4 h greenness (forest) exposure; format: in vivo; parameters: Maximum response: unit not given here; settings: human urine
Description: (§1) Briefly, for controlled inhalation experiments, eight healthy volunteers were exposed to α-pinene in a custom-built exposure chamber via inhalation from a 15 ml conical tube, containing approximately 100 μl α-pinene, for a duration of 10 min. Urine samples were collected before exposure (0 h) and 0.5, 1, 2, 3, and 4 h after exposure. […] Urine samples were collected both before (0 h) or 4 h after exposure. After collection, the urine samples were centrifuged and stored at −80 °C before analysis. […] Demographic information, including sex, age and race, can be found in Table S1.
Briefly, after 1:10 dilution, urine samples were separated using an Acquity I-Class UPLC system with an Acquity Premier CSH C18 UPLC column (Waters, MA) with a gradient comprising 0.1 % formic acid in water as the solvent A and 0.1 % formic acid in acetonitrile as the solvent B. Mass Spectrometry Elevated Energy (MS^E) data were collected using a Waters Synapt XS MS (Waters, MA) with an ESI ion source operated in the negative mode. Subsequent analyses of raw files were performed using UNIFI 1.9 and Progenesis QI 3.0 (both from Waters, MA). […]
Relative quantification of aPM was performed based on the peak responses normalized to urinary creatinine levels. Urinary creatinine levels were measured using an Ace Axcel Clinical Chemistry System with ACE Creatinine Reagent from Alfa Wassermann (West Caldwell, NJ). […]

[3] = Relative quantification of urinary aPM (UPLC-QTOF-MS, creatinine-normalized) after controlled α-pinene inhalation; format: in vivo, human
Description: as §1
Briefly, after 1:10 dilution, urine samples were separated using an Acquity I-Class UPLC system with an Acquity Premier CSH C18 UPLC column (Waters, MA) with a gradient comprising 0.1 % formic acid in water as the solvent A and 0.1 % formic acid in acetonitrile as the solvent B. Mass Spectrometry Elevated Energy (MS^E) data were collected using a Waters Synapt XS MS (Waters, MA) with an ESI ion source operated in the negative mode. Subsequent analyses of raw files were performed using UNIFI 1.9 and Progenesis QI 3.0 (both from Waters, MA). To validate LC-MS performance, one quality control (QC) sample, prepared by pooling equal amount of each urine sample, was injected after every ten urine sample injections.
Relative quantification of aPM was performed based on the peak responses normalized to urinary creatinine levels. Urinary creatinine levels were measured using an Ace Axcel Clinical Chemistry System with ACE Creatinine Reagent from Alfa Wassermann (West Caldwell, NJ). Statistical analyses, including ANOVA and Student’s t-tests, were conducted using SAS 9.4 (SAS Institute, NC) to explore differences in aPM across various time points. […] A threshold for statistical significance was defined as p < 0.05.

[4] = aPM in mouse urine after i.p. injection of (+)-α-pinene or (−)-α-pinene; format: in vivo, mice (C57BL/6); settings: mouse urine collected overnight
Description: Mouse urine was collected after exposures to either (+) or (−) α-pinene to distinguish between metabolites of different enantiomers of α-pinene. Adult male mice (C57BL/6) were intraperitoneally administered with 50 mg/kg body weight of (+)-α-pinene or (−)-α-pinene dissolved in 100 μl sterile saline with 1 % Tween 80.

[5] = human urine after α-pinene inhalation

**Q.** Which “Ka, first-order generation constant” value [1] does the source give for α-Pinene-O-GlcA [aPM2a] here?
**A.** 2.69 ± 0.68 h⁻¹

**Q.** What about the Frequency of occurrence [2] of the same substance?
**A.** 25.0%

**Q.** And the Maximum response [2]?
**A.** 445

**Q.** What about the “Frequency of occurrence (percentage of samples with analyte detected)” value [3, 5] of the same substance?
**A.** 75.0%

**Q.** And the “Maximum response (highest peak response across all urine samples)” value [3, 5]?
**A.** 13299

**Q.** And the “Proportion (observed) after α-pinene inhalation” value ([3]; share of total response of 22 aPM, averaged over post-exposure samples)?
**A.** 0.3%

**Q.** What about the “(1R)-(+)-α-Pinene (Average), proportion of aPM in mouse urine” value ([4]; 50 mg/kg i.p. (+)-α-pinene) of the same substance?
**A.** 0.0%

**Q.** What about the “(1S)-(−)-α-Pinene (Average), proportion of aPM in mouse urine” value ([4]; 50 mg/kg i.p. (−)-α-pinene) of the same substance?
**A.** 0.0%
